From ChEMBL document CHEMBL1125727 (J Med Chem, 1991)

Experiments:
UV4 = assay: Hypersensitivity factor obtained from in vitro cytotoxicities against Chinese hamster ovary derived AA8 / UV4 cell lines
P388 [1] = assay: Optimal dose administered as a single dose by intraperitoneal inoculation of 10 X E6 murine leukemia P388 cell lines.
CHO-AA8 = assay: Compound was evaluated for in vitro cytotoxicities against Chinese hamster ovary derived AA8 cell lines.
P388 [2] = assay: In vitro cytotoxicity against murine leukemia P388 cell line.; format: functional, cell-based, Mus musculus
Summary of the method: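 P388 cells kept in exponential growth in RPMI 1640 with 10% fetal calf serum. Log-phase cultures in 96-well plates with drug present throughout 72 h growth. Final density read by a modified MTT method. IC50 is the nominal concentration reducing cell density to 50% of control, with eight controls per plate.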

P388 [3] = assay: Percentage increase in lifespan of drug-related tumor bearing animals when heated at the optimal dose and tested in murine leukemia P388 cell lines.

Structure (SMILES)	pIC50 (UV4)	pIC50 (P388 [1])	pIC50 (CHO-AA8)	pIC50 (P388 [2])	pIC50 (P388 [3])
CSc1ccc(N(CCCl)CCCl)cc1	4.48	4.19	–	–	–
Cc1ccc(N(CCCl)CCCl)cc1	4.38	4.19	5.54	6.20	4.44

pIC50: −log10 of the molar value.
